Laboratory results reported in paper PMC8953592, “Mechanism of Action and Therapeutic Potential of the β-Hairpin Antimicrobial Peptide Capitellacin from the Marine Polychaeta Capitella teleta” (Marine Drugs, 2022).

Columns and labels:
[1] = system: Bacillus subtilis B-886; test: MIC, two-fold serial dilutions; settings: MH medium with 0.9% NaCl, 0.1% BSA, 5 × 10^5 CFU/mL, 37 °C, 24 h
[2] = system: Micrococcus luteus B-1314; test: MIC, two-fold serial dilutions; settings: MH medium with 0.9% NaCl, peptides diluted in 0.1% BSA, 5 × 10^5 CFU/mL, 37 °C, 24 h

## CC[C@H](C)[C@@H]1NC(=O)[C@@H](NC(=O)[C@@H](NC(=O)[C@H](CCCNC(=N)N)NC(=O)[C@@H]2CCCN2C(=O)[C@H](CO)NC(=O)[C@@H](N)CCCNC(=N)N)C(C)C)CSSC[C@@H](C(=O)N[C@@H](Cc2c[nH]c3ccccc23)C(=O)NCC(=O)O)NC(=O)[C@H](CCCNC(=N)N)NC(=O)[C@H](CCCNC(=N)N)NC(=O)[C@H](Cc2ccc(O)cc2)NC(=O)[C@@H]2CSSC[C@H](NC(=O)[C@H](C(C)C)NC(=O)[C@H](CCCNC(=N)N)NC1=O)C(=O)N[C@@H](CCCNC(=N)N)C(=O)N[C@@H](CC(N)=O)C(=O)NCC(=O)N[C@@H](C(C)C)C(=O)N2 [CT2]
[1]
  Minimum Inhibitory Concentration: 8 µM
[2]
  Minimum Inhibitory Concentration: 1 µM

## CC[C@H](C)[C@@H]1NC(=O)[C@@H](NC(=O)[C@@H](NC(=O)[C@H](CCCNC(=N)N)NC(=O)[C@@H]2CCCN2C(=O)[C@@H](N)CO)C(C)C)CSSC[C@@H](C(=O)N[C@@H](Cc2c[nH]c3ccccc23)C(=O)O)NC(=O)[C@H](CCCNC(=N)N)NC(=O)[C@H](CCCNC(=N)N)NC(=O)[C@H](Cc2ccc(O)cc2)NC(=O)[C@@H]2CSSC[C@H](NC(=O)[C@H](C(C)C)NC(=O)[C@H](CCCNC(=N)N)NC1=O)C(=O)N[C@@H](CCCNC(=N)N)C(=O)N[C@@H](CC(N)=O)C(=O)NCC(=O)N[C@@H](C(C)C)C(=O)N2 [CT3]
[1]
  Minimum Inhibitory Concentration: 32 µM
[2]
  Minimum Inhibitory Concentration: 4 µM

## CC[C@H](C)[C@@H]1NC(=O)[C@@H](NC(=O)[C@@H](NC(=O)[C@@H](N)CCCNC(=N)N)C(C)C)CSSC[C@@H](C(=O)N[C@@H](Cc2c[nH]c3ccccc23)C(=O)O)NC(=O)[C@H](CCCNC(=N)N)NC(=O)[C@H](CCCNC(=N)N)NC(=O)[C@H](Cc2ccc(O)cc2)NC(=O)[C@@H]2CSSC[C@H](NC(=O)[C@H](C(C)C)NC(=O)[C@H](CCCNC(=N)N)NC1=O)C(=O)N[C@@H](CCCNC(=N)N)C(=O)N[C@@H](CC(N)=O)C(=O)NCC(=O)N[C@@H](C(C)C)C(=O)N2 [CT4]
[1]
  Minimum Inhibitory Concentration: 16 µM
[2]
  Minimum Inhibitory Concentration: 4 µM

## CC(C)[C@@H]1NC(=O)CNC(=O)[C@H](CC(N)=O)NC(=O)[C@H](CCCNC(=N)N)NC(=O)[C@@H]2CSSC[C@H](NC1=O)C(=O)N[C@@H](Cc1ccc(O)cc1)C(=O)N[C@@H](CCCNC(=N)N)C(=O)N[C@@H](CCCNC(=N)N)C(=O)N[C@H](C(=O)N[C@@H](Cc1c[nH]c3ccccc13)C(=O)O)CSSC[C@H](NC(=O)[C@@H](NC(=O)[C@@H](N)CCCNC(=N)N)C(C)C)C(=O)N[C@@H](Cc1ccccc1)C(=O)N[C@@H](CCCNC(=N)N)C(=O)N[C@@H](C(C)C)C(=O)N2 [CT6]
[1]
  Minimum Inhibitory Concentration: 16 µM
[2]
  Minimum Inhibitory Concentration: 4 µM

## CC[C@H](C)[C@@H]1NC(=O)[C@@H](NC(=O)[C@@H](NC(=O)[C@H](CCCNC(=N)N)NC(=O)[C@@H]2CCCN2C(=O)[C@@H](N)CO)C(C)C)CSSC[C@@H](C(=O)N[C@@H](Cc2c[nH]c3ccccc23)C(=O)NCC(=O)O)NC(=O)[C@H](CCCNC(=N)N)NC(=O)[C@H](CCCNC(=N)N)NC(=O)[C@H](Cc2ccc(O)cc2)NC(=O)[C@@H]2CSSC[C@H](NC(=O)[C@H](C(C)C)NC(=O)[C@H](CCCNC(=N)N)NC1=O)C(=O)N[C@@H](CCCNC(=N)N)C(=O)N[C@@H](CC(N)=O)C(=O)NCC(=O)N[C@@H](C(C)C)C(=O)N2 [Cap, capitellacin]
[1]
  Minimum Inhibitory Concentration: 16 µM
[2]
  Minimum Inhibitory Concentration: 4 µM
